What was measured:
Neuraminidase [1] = biological target: T1, Neuraminidase (Influenza A virus, UniProt B4URF0)
Neuraminidase [2] = biological target: T1, Neuraminidase; remark: listed apart in the source

Row | Compound | Ki (Neuraminidase [1]) | IC50 (Neuraminidase [2])
1 | COc1c(C)c(O)c(C)c(O)c1C(=O)/C=C/c1ccc(O)cc1 | 24.9 µM | 8.15 µM
2 | COc1c(C)c(O)c(C)c(O)c1C(=O)/C=C/c1ccccc1O | 34.1 µM | 10 µM
3 | COc1c(C)c(O)c(C)c(O)c1C(=O)/C=C/c1ccccc1 | 41.4 µM | 35.2 µM
4 | COc1cc(O)c(C)c(O)c1C(=O)/C=C/c1ccccc1 | 12 µM | 93.8 µM
